Protein sequences, listed by entry. Tags and fused reporters are not part of them. Lines headed by an entry give the natural chain unless they say otherwise; changes in a name come on top. Residues count along the entry.
UniProt Q9BYT3: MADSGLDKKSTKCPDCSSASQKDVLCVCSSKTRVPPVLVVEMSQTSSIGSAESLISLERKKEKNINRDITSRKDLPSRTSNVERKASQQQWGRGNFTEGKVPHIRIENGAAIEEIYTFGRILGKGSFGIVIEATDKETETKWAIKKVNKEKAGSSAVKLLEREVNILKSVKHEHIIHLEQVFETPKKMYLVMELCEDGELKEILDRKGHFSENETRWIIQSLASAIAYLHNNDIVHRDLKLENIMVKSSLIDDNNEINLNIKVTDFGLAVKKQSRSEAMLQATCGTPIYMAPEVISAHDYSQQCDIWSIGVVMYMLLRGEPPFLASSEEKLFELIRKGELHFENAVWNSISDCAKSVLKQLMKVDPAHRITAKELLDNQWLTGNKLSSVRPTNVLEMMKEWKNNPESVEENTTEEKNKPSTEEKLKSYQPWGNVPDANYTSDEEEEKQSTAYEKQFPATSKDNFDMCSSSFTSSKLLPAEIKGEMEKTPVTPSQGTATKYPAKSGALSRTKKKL
UniProt P29376, 17-864: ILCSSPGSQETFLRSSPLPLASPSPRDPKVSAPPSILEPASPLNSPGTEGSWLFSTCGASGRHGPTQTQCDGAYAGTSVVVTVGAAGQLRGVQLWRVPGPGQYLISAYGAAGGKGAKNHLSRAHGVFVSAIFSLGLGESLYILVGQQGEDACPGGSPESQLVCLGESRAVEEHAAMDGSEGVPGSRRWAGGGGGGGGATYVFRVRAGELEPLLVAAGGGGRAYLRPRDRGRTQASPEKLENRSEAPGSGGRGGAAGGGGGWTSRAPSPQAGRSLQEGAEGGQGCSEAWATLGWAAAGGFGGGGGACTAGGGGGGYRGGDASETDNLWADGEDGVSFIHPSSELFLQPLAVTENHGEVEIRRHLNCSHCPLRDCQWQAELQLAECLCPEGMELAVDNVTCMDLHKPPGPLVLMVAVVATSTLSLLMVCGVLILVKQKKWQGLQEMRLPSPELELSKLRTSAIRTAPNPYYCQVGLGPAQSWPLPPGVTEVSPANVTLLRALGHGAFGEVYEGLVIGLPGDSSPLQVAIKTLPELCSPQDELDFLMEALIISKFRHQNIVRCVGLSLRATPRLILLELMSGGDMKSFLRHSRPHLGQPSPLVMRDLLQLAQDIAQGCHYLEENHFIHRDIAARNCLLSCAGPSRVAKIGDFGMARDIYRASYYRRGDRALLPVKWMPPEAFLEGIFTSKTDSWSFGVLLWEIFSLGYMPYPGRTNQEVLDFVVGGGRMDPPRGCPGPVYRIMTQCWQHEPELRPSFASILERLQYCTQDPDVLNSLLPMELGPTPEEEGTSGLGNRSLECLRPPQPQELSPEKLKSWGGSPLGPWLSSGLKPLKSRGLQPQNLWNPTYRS
UniProt Q16539, whole entry: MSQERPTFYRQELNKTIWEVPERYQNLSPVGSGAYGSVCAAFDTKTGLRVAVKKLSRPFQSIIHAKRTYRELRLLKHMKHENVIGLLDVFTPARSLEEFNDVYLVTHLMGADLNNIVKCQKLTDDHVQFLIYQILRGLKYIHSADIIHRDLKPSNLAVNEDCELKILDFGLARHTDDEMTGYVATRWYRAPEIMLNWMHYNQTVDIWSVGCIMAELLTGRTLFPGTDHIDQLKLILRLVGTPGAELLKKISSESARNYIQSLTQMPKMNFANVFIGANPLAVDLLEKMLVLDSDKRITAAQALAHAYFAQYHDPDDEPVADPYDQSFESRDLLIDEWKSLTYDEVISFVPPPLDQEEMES
UniProt O95835: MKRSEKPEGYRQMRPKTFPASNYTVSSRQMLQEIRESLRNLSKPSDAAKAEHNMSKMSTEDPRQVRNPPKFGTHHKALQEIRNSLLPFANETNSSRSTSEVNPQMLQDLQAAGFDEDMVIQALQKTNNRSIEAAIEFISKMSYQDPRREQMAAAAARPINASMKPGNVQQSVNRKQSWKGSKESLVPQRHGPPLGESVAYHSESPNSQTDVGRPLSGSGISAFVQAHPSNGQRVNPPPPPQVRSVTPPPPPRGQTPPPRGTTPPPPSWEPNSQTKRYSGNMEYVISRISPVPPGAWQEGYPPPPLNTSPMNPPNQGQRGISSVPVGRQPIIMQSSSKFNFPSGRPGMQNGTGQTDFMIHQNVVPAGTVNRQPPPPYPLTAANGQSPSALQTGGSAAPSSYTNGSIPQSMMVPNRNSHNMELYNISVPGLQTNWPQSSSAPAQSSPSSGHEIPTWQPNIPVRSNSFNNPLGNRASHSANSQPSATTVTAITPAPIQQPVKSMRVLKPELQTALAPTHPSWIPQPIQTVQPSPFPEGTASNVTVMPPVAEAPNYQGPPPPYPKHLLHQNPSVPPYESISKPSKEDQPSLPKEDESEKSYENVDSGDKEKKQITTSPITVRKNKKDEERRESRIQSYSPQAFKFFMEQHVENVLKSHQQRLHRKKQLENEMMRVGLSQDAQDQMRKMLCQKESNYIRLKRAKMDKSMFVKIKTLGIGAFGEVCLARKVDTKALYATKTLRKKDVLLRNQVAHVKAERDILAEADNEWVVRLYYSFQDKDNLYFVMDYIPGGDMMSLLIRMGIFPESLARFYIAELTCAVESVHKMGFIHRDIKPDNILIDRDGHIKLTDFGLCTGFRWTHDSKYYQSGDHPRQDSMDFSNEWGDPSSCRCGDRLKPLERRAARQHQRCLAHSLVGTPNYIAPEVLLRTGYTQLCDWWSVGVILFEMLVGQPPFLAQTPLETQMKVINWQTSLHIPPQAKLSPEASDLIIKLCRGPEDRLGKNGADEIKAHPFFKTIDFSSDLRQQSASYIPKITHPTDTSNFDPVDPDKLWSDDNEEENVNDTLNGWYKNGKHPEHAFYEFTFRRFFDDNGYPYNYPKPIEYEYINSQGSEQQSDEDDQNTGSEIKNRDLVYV
UniProt Q8TD08: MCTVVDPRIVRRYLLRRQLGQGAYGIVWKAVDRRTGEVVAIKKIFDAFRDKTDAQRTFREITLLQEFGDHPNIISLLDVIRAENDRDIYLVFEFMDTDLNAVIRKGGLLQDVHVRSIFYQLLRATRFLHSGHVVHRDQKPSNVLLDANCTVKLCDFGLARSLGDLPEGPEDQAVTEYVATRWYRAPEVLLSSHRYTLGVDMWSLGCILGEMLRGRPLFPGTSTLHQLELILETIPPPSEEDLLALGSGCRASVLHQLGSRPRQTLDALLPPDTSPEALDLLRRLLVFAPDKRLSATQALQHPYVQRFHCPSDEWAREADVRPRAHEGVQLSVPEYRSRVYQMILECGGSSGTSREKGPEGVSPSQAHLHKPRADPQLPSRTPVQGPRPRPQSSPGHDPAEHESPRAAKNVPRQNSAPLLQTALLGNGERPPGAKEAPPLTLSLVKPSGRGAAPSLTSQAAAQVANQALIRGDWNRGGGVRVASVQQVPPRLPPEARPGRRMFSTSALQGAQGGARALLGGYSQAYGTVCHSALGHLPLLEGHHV
UniProt Q9UPE1, whole entry: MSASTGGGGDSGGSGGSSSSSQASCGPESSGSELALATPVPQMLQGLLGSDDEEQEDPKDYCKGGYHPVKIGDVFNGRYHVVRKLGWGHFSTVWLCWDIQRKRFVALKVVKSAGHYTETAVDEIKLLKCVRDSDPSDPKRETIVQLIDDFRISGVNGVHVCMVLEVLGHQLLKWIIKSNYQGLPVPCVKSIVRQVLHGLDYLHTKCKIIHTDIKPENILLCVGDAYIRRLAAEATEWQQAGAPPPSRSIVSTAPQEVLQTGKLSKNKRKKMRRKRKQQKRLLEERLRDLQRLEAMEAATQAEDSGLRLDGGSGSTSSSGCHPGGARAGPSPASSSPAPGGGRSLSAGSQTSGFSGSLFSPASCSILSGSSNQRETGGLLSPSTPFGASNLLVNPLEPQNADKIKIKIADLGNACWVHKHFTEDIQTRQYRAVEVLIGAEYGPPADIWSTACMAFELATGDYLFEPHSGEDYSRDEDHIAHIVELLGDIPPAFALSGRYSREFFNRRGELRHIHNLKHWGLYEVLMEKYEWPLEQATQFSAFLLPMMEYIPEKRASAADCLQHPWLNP
UniProt Q9Y6E0: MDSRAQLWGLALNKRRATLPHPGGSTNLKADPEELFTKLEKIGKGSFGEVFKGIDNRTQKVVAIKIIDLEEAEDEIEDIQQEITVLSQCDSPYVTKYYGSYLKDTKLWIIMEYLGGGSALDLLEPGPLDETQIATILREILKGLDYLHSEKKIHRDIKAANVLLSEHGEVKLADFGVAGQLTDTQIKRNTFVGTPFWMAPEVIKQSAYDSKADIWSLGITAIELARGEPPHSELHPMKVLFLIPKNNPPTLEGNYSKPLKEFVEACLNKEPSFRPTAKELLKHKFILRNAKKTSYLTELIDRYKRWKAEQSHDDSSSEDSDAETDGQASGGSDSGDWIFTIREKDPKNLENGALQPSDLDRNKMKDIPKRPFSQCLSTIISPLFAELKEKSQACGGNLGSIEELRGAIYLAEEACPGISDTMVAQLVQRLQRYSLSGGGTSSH
UniProt Q9NWZ3, whole entry: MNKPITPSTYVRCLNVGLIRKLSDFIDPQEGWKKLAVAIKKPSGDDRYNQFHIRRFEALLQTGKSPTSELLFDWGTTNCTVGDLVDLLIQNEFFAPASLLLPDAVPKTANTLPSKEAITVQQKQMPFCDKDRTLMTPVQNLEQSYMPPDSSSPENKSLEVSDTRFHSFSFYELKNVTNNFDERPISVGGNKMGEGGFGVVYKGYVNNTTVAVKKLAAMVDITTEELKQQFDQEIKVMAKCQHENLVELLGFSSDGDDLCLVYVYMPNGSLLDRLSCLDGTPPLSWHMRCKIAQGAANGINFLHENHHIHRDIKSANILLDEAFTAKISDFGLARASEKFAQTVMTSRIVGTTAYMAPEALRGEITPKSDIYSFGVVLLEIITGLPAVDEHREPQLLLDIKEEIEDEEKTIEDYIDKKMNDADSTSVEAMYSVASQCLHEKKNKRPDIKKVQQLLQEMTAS
UniProt Q15349, 59-318 limits assumed: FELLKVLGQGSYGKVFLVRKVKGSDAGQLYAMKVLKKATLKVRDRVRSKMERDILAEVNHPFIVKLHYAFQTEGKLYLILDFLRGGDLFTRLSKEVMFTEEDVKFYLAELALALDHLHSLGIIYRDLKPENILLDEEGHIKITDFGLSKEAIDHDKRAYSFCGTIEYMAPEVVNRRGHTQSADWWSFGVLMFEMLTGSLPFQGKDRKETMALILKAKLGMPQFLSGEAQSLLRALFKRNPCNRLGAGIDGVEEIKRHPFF
UniProt Q9BXA7: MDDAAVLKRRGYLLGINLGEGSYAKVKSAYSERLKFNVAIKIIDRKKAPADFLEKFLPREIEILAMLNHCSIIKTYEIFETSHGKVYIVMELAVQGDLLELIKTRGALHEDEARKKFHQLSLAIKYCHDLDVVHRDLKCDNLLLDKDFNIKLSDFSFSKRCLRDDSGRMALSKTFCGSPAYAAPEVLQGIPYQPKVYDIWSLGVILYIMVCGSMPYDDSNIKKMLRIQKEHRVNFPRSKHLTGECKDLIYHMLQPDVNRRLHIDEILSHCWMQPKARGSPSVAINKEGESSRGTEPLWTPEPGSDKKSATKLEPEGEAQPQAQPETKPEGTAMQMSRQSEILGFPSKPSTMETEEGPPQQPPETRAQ
UniProt O14733: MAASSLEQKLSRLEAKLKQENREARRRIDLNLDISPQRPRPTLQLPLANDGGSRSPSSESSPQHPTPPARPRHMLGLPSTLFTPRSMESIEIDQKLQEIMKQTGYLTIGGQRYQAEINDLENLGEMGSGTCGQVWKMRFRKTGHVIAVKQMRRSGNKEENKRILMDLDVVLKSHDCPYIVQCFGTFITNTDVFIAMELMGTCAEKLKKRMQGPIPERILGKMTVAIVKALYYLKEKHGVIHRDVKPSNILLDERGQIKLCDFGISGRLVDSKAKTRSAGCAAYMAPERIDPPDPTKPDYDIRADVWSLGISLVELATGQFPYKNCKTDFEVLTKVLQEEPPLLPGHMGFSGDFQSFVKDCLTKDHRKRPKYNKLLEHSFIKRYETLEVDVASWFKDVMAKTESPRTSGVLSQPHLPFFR
UniProt Q13554, whole entry: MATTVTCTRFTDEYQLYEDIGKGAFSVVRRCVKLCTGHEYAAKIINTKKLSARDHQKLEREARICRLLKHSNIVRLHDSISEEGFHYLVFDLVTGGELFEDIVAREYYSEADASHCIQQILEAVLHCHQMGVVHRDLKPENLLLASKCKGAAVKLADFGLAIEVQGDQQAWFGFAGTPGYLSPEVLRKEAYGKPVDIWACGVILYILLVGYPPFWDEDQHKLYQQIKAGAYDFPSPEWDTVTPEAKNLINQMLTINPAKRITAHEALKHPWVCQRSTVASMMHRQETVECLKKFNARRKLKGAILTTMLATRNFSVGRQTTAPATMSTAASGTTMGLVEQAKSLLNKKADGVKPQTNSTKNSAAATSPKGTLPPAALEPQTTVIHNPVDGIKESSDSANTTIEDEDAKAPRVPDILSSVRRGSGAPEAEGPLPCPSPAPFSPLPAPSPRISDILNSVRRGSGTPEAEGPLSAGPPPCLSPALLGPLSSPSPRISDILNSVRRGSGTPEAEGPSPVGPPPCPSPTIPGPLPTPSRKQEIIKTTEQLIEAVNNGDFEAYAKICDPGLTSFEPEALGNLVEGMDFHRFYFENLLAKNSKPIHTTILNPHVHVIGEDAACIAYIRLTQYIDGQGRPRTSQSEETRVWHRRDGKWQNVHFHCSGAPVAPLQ

In article PMC11472320, “Computationally Driven Discovery of a BCR-ABL1 Kinase Inhibitor with Activity in Multidrug-Resistant Chronic Myeloid Leukemia” (Journal of Medicinal Chemistry, 2024):

Assays:
Test in all cases: biochemical
Conditions in all cases: read-out: Percent Control
INSRR = INSRR (Homo sapiens, UniProt P14616)
AURKA = AURKA (Homo sapiens, UniProt O14965)
STK33 = STK33 (Homo sapiens, UniProt Q9BYT3)
CLK4 = CLK4 (Homo sapiens, UniProt Q9HAZ1)
MAP4K4 = MAP4K4 (Homo sapiens, UniProt O95819)
FLT3-autoinhibited = FLT3-autoinhibited (Homo sapiens, UniProt P36888)
WNK3 = WNK3 (Homo sapiens, UniProt Q9BYP7)
LTK = LTK (Homo sapiens, UniProt P29376)
p38-alpha = p38-alpha (Homo sapiens, UniProt Q16539)
RAF1 = RAF1 (Homo sapiens, UniProt P04049)
LATS1 = LATS1 (Homo sapiens, UniProt O95835)
MEK3 = MEK3 (Homo sapiens, UniProt P46734)
ERK3 = ERK3 (Homo sapiens, UniProt Q16659)
ERBB4 = ERBB4 (Homo sapiens, UniProt Q15303)
AXL = AXL (Homo sapiens, UniProt P30530)
ERK8 = ERK8 (Homo sapiens, UniProt Q8TD08)
SRPK3 = SRPK3 (Homo sapiens, UniProt Q9UPE1)
FGFR3 = FGFR3 (Homo sapiens, UniProt P22607)
PRKG1 = PRKG1 (Homo sapiens, UniProt Q13976)
DCAMKL2 = DCAMKL2 (Homo sapiens, UniProt Q8N568)
MST3 = MST3 (Homo sapiens, UniProt Q9Y6E0)
GRK1 = GRK1 (Homo sapiens, UniProt Q15835)
IRAK4 = IRAK4 (Homo sapiens, UniProt Q9NWZ3)
IRAK3 = IRAK3 (Homo sapiens, UniProt Q9Y616)
SGK = SGK (Homo sapiens, UniProt O00141)
EGFR(L747-T751del,Sins) = EGFR(L747-T751del,Sins) (Homo sapiens, UniProt P00533, DEL747-750/T751S)
DDR2 = DDR2 (Homo sapiens, UniProt Q16832)
[1] = target: RSK3(Kin.Dom.1-N-terminal) (Homo sapiens, UniProt Q15349)
ULK1 = ULK1 (Homo sapiens, UniProt O75385)
EPHB2 = EPHB2 (Homo sapiens, UniProt P29323)
[2] = target: JAK3(JH1domain-catalytic) (Homo sapiens, UniProt P52333)
RIPK4 = RIPK4 (Homo sapiens, UniProt P57078)
ROCK1 = ROCK1 (Homo sapiens, UniProt Q13464)
EGFR(L858R) = EGFR(L858R) (Homo sapiens, UniProt P00533, L858R)
TSSK1B = TSSK1B (Homo sapiens, UniProt Q9BXA7)
PIK3CA(E542K) = PIK3CA(E542K) (Homo sapiens, UniProt P42336, E542K)
ALK(L1196M) = ALK(L1196M) (Homo sapiens, UniProt Q9UM73, L1196M)
MKK7 = MKK7 (Homo sapiens, UniProt O14733)
SLK = SLK (Homo sapiens, UniProt Q9H2G2)
CAMK2B = CAMK2B (Homo sapiens, UniProt Q13554)
EGFR(S752-I759del) = EGFR(S752-I759del) (Homo sapiens, UniProt P00533, DEL752-759)
CLK1 = CLK1 (Homo sapiens, UniProt P49759)

SMILES: COc1cc2c(Nc3ccc(Cl)c(OC)n3)c(C#N)cnc2cc1OCCON1CCN(C)CC1 [16a, 4-((5-Chloro-6-methoxypyridin-2-yl)amino)-6-methoxy-7-(2-((4-methylpiperazin-1-yl)oxy)ethoxy)quinoline-3-carbonitrile]
- remaining activity at 1 µM (INSRR): 90%
- remaining activity at 1 µM (AURKA): 100%
- remaining activity at 1 µM (STK33): 4.3%
- remaining activity at 1 µM (CLK4): 8.1%
- remaining activity at 1 µM (MAP4K4): 0.9%
- remaining activity at 1 µM (FLT3-autoinhibited): 100%
- remaining activity at 1 µM (WNK3): 7.5%
- remaining activity at 1 µM (LTK): 56%
- remaining activity at 1 µM (p38-alpha): 50%
- remaining activity at 1 µM (RAF1): 100%
- remaining activity at 1 µM (LATS1): 100%
- remaining activity at 1 µM (MEK3): 36%
- remaining activity at 1 µM (ERK3): 49%
- remaining activity at 1 µM (ERBB4): 0.65%
- remaining activity at 1 µM (AXL): 7.4%
- remaining activity at 1 µM (ERK8): 99%
- remaining activity at 1 µM (SRPK3): 95%
- remaining activity at 1 µM (FGFR3): 86%
- remaining activity at 1 µM (PRKG1): 100%
- remaining activity at 1 µM (DCAMKL2): 85%
- remaining activity at 1 µM (MST3): 25%
- remaining activity at 1 µM (GRK1): 64%
- remaining activity at 1 µM (IRAK4): 72%
- remaining activity at 1 µM (IRAK3): 72%
- remaining activity at 1 µM (SGK): 100%
- remaining activity at 1 µM (EGFR(L747-T751del,Sins)): 4.5%
- remaining activity at 1 µM (DDR2): 19%
- remaining activity at 1 µM [1]: 75%
- remaining activity at 1 µM (ULK1): 83%
- remaining activity at 1 µM (EPHB2): 6.7%
- remaining activity at 1 µM [2]: 3.1%
- remaining activity at 1 µM (RIPK4): 100%
- remaining activity at 1 µM (ROCK1): 31%
- remaining activity at 1 µM (EGFR(L858R)): 0.15%
- remaining activity at 1 µM (TSSK1B): 25%
- remaining activity at 1 µM (PIK3CA(E542K)): 100%
- remaining activity at 1 µM (ALK(L1196M)): 10%
- remaining activity at 1 µM (MKK7): 100%
- remaining activity at 1 µM (SLK): 0.2%
- remaining activity at 1 µM (CAMK2B): 80%
- remaining activity at 1 µM (EGFR(S752-I759del)): 1.9%
- remaining activity at 1 µM (CLK1): 24%
